The source of these data is patent US20260091086A1, “POLYPEPTIDE COMBINATIONS AND USES THEREOF” (MEDIMMUNE LIMITED, priority 2024, published 2026).

The assay deals with hAMYR as compared to hCTR. In words: Selectivity hAMYR over hCTR by cAMP release. Type of assay: cell-based, human.

For the molecule `CC[C@H](C)[C@H](NC(=O)[C@@H]1CCCN1C(=O)CNC(=O)[C@H](Cc1ccccc1)NC(=O)[C@H](CC(N)=O)NC(=O)[C@H](CC(N)=O)NC(=O)[C@H](CO)NC(=O)[C@H](CO)NC(=O)[C@H](Cc1c[nH]cn1)NC(=O)[C@@H](NC(=O)[C@H](CC(C)C)NC(=O)[C@H](Cc1ccccc1)NC(=O)[C@H](CC(N)=O)NC(=O)[C@H](C)NC(=O)[C@H](CC(C)C)NC(=O)[C@H](CCCNC(=N)N)NC(=O)[C@H](CCC(N)=O)NC(=O)[C@@H](NC(=O)[C@H](C)NC(=O)[C@@H]1CSSC[C@H](NC(=O)[C@@H](N)CCCCN)C(=O)N[C@@H](CC(N)=O)C(=O)N[C@@H]([C@@H](C)O)C(=O)N[C@@H](C)C(=O)N[C@@H]([C@@H](C)O)C(=O)N1)[C@@H](C)O)C(C)C)C(=O)N[C@@H](CC(C)C)C(=O)N1CCC[C@H]1C(=O)N1CCC[C@H]1C(=O)N[C@H](C(=O)N[C@@H](CC(N)=O)C(=O)N[C@H](C(=O)NCC(=O)N[C@@H](CO)C(=O)N[C@@H](CC(N)=O)C(=O)N[C@H](C(=O)N[C@@H](Cc1ccc(O)cc1)C(N)=O)[C@@H](C)O)C(C)C)[C@@H](C)O` [Pramlintide], the “selectivity to hAMYR as compared to hCTR” value is “at least 10 fold”.
